In ChEMBL document CHEMBL1121477, “Noval antitumor nitrosoureas and related compounds and their reactions with DNA” (1980) one finds Activity data, which are given here for one compound.

A short description of this experiment: Percent ability of compound to produce DNA interstrand cross-links was determined by the ethidium fluorescence assay at 6 hr and compared with antileukemic property. Further details: concentration or dose not given beside the values. The experiment is classed as functional. The method in brief: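 λ-DNA (1.0 A260 unit) was incubated with 5 mM compound in 50 mM potassium phosphate pH 7.2 at 37 °C. Aliquots went into 20 mM potassium phosphate pH 11.8, 0.4 mM EDTA and 0.5 µg/mL ethidium, were heated at 96 °C for 3 min and rapidly cooled. Fluorescence relative to control ×100 gives % DNA molecules with ≥1 interstrand cross-link; accuracy about ±2%.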

In turn, `N/C(=N\[N+](=O)[O-])N(CCCl)N=O` came in with an Activity of 0%.
